PMC11432405, “Development of Novel Alaninamide Derivatives with Anticonvulsant Activity and Favorable Safety Profiles in Animal Models” (International Journal of Molecular Sciences, 2024)

The chains behind the UniProt entries cited, without tags or fusion partners.
UniProt P27338, whole entry: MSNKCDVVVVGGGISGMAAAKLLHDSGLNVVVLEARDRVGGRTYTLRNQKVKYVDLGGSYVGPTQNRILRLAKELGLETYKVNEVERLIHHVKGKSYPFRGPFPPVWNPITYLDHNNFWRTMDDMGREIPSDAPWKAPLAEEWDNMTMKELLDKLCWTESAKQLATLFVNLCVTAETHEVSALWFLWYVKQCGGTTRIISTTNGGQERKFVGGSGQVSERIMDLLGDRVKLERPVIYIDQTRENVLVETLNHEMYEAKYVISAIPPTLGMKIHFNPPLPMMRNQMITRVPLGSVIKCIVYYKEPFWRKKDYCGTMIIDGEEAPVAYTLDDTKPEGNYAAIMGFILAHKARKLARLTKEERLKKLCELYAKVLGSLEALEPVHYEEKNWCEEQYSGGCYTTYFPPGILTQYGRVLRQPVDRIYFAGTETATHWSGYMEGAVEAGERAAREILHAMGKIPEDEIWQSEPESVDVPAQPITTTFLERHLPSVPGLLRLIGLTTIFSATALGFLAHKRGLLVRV

Target: human recombinant MAO-B (Homo sapiens, UniProt P27338)
Test: fluorometric monoamine oxidase B inhibition assay
Details: read-out: % inhibition MAO-B (1 µM)

**Q.** Which inhibition at 1 µM does the source give for C[C@H](NCc1ccc(OCc2cccc(F)c2)cc1)C(N)=O [SAF, safinamide, reference compound] here?
**A.** 100%
